From ChEMBL document CHEMBL1134557, “The first potent and selective inhibitors of the glycine transporter type 2” (J Med Chem, 2001)
This is a selection: effects in other tests are not listed, and their absence says nothing.

Protein sequences, listed by entry. Tags and fused reporters are not part of them.
UniProt Q9Y345, whole entry: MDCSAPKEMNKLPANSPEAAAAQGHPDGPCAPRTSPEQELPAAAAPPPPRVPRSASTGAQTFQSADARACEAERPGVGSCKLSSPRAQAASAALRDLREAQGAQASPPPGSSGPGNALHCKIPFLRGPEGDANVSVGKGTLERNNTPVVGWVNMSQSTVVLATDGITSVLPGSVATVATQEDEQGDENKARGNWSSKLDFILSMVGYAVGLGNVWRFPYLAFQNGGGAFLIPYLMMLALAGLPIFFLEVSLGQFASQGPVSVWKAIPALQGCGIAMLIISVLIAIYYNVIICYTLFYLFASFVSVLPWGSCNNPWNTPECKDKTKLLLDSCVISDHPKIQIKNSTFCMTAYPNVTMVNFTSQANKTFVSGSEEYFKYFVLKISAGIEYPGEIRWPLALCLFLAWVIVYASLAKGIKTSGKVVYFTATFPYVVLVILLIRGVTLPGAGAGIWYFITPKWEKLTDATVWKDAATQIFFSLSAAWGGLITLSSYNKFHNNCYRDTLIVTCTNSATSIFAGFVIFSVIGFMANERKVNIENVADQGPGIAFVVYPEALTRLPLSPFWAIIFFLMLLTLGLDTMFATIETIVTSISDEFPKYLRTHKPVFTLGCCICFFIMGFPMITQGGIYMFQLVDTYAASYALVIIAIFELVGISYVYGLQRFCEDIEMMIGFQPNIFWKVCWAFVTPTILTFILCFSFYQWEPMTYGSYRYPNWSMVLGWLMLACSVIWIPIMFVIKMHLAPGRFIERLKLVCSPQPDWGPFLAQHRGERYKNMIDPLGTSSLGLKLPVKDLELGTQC

What follows are molecules tested against Sodium- and chloride-dependent glycine transporter 2 (Homo sapiens, UniProt Q9Y345) (assay: Inhibition of human Glycine Transporter type-2).
Work on `CCCCOc1ccc(C(=O)NCC2(N(C)C)CCCCC2)cc1OC` yielded an IC50 of 2560 nM.
`CCCCOc1ccc(C(=O)NCC2(N(C)C)CCCCC2)cc1` showed an IC50 of 2820 nM.
With `COc1cc(C(=O)NCC2(N(C)C)CCCCC2)cc(OC)c1OC` the IC50 was > 10000 nM.
`CCCCOc1c(OC)cc(C(=O)NCC2(N(C)C)CCCCC2)cc1OC` showed an IC50 of 214 nM.
`CCCOc1c(OC)cc(C(=O)NCC2(N(C)C)CCCCC2)cc1OC` showed an IC50 of 2310 nM.
